Tests used:
U-251 = test: Inhibition of cell proliferation of human U251 cells assessed as cell viability after 72 hrs by sulforhodamine B assay; format: functional, cell-based
C6 = test: Inhibition of cell proliferation of rat C6 cells assessed as cell viability after 72 hrs by sulforhodamine B assay; format: functional, cell-based

Compound	inhibition (U-251)	inhibition (C6)
C=CC(C)(O)CC/C=C(\CO)C(=O)O[C@H]1[C@H](OC[C@H]2O[C@@H](OC(=O)[C@]34CCC(C)(C)C[C@H]3C3=CC[C@@H]5[C@@]6(C)CC[C@H](O[C@@H]7O[C@H](CO[C@@H]8OC[C@H](O)[C@H](O)[C@H]8O[C@@H]8OC[C@@H](O)[C@H](O)[C@H]8O)[C@@H](O)[C@H](O)[C@H]7O)C(C)(C)[C@@H]6CC[C@@]5(C)[C@]3(C)C[C@H]4O)[C@H](O[C@@H]3O[C@@H](C)[C@H](O[C@@H]4OC[C@@H](O)[C@H](O[C@@H]5OC[C@@H](O)[C@H](O)[C@H]5O)[C@H]4O)[C@@H](O)[C@H]3O)[C@@H](O)[C@@H]2O)O[C@@H](C)[C@H](O)[C@H]1OC(=O)/C(C)=C/CC[C@@](C)(O)C=C (some centres undefined)	Dose-dependent effect	Dose-dependent effect
CC(=O)Oc1ccc(CCOC(=O)CCc2ccc(OC(C)=O)c(OC(C)=O)c2)cc1OC(C)=O	Dose-dependent effect	Dose-dependent effect
C=C[C@@](C)(O)CC/C=C(\C)C(=O)OC[C@H]1O[C@@H](OC(=O)[C@]23CCC(C)(C)C[C@H]2C2=CC[C@@H]4[C@@]5(C)CC[C@H](O[C@@H]6O[C@H](CO[C@@H]7OC[C@H](O)[C@H](O)[C@H]7O[C@@H]7OC[C@@H](O)[C@H](O)[C@H]7O)[C@@H](O)[C@H](O)[C@H]6O)C(C)(C)[C@@H]5CC[C@@]4(C)[C@]2(C)CC3)[C@H](O[C@@H]2O[C@@H](C)[C@H](O[C@@H]3OC[C@@H](O)[C@H](O[C@@H]4OC[C@@H](O)[C@H](O)[C@H]4O)[C@H]3O)[C@@H](O)[C@H]2O)[C@@H](O)[C@@H]1O	Dose-dependent effect	Dose-dependent effect
O=c1c(O)c(-c2ccc(O)c(O)c2)oc2cc(O)cc(O)c12 [QUERCETIN]	Dose-dependent effect	Dose-dependent effect
C=CC(C)(O)CC/C=C(\CO)C(=O)OC[C@H]1O[C@@H](OC(=O)[C@]23CCC(C)(C)C[C@H]2C2=CC[C@@H]4[C@@]5(C)CC[C@H](O[C@@H]6O[C@H](CO[C@@H]7OC[C@H](O)[C@H](O)[C@H]7O[C@@H]7OC[C@@H](O)[C@H](O)[C@H]7O)[C@@H](O)[C@H](O)[C@H]6O)C(C)(C)[C@@H]5CC[C@@]4(C)[C@]2(C)CC3)[C@H](O[C@@H]2O[C@@H](C)[C@H](O[C@@H]3OC[C@@H](O)[C@H](O[C@@H]4OC[C@@H](O)[C@H](O)[C@H]4O)[C@H]3O)[C@@H](O)[C@H]2O)[C@@H](O)[C@@H]1O (some centres undefined)	Dose-dependent effect	Dose-dependent effect
C/C=C(/C)C(=O)O[C@H]1[C@H](O)[C@]2(COC(C)=O)[C@H](O)C[C@]3(C)C(=CC[C@@H]4[C@@]5(C)CC[C@H](O[C@@H]6O[C@H](C(=O)OC)[C@@H](O[C@@H]7O[C@H](CO)[C@@H](O)[C@H](O)[C@H]7O)[C@H](O)[C@H]6O[C@@H]6O[C@H](CO)[C@@H](O)[C@H](O)[C@H]6O)[C@](C)(CO)[C@@H]5CC[C@]43C)[C@@H]2CC1(C)C	Dose-dependent effect	Dose-dependent effect
C=C[C@@](C)(O)CC/C=C(\CO)C(=O)OC[C@H]1O[C@@H](OC(=O)[C@]23CCC(C)(C)C[C@H]2C2=CC[C@@H]4[C@@]5(C)CC[C@H](O[C@@H]6O[C@H](CO[C@@H]7OC[C@H](O)[C@H](O)[C@H]7O[C@@H]7OC[C@@H](O)[C@H](O)[C@H]7O)[C@@H](O)[C@H](O)[C@H]6O)C(C)(C)[C@@H]5CC[C@@]4(C)[C@]2(C)C[C@H]3O)[C@H](O[C@@H]2O[C@@H](C)[C@H](O[C@@H]3OC[C@@H](O)[C@H](O[C@@H]4OC[C@@H](O)[C@H](O)[C@H]4O)[C@H]3O)[C@@H](O)[C@H]2O[C@@H]2O[C@H](CO)[C@H](O)[C@H](O)[C@H]2O)[C@@H](O)[C@@H]1O	Dose-dependent effect	Dose-dependent effect
C=CC(C)(O)CC/C=C(\CO)C(=O)O[C@H]1[C@H](O)[C@@H](COC(=O)/C(C)=C/CC[C@](C)(O)C=C)O[C@@H](OC(=O)[C@]23CCC(C)(C)C[C@H]2C2=CC[C@@H]4[C@@]5(C)CC[C@H](O[C@@H]6O[C@H](CO[C@@H]7OC[C@H](O)[C@H](O)[C@H]7O[C@@H]7OC[C@@H](O)[C@H](O)[C@H]7O)[C@@H](O)[C@H](O)[C@H]6O)C(C)(C)[C@@H]5CC[C@@]4(C)[C@]2(C)CC3)[C@@H]1O[C@@H]1O[C@@H](C)[C@H](O[C@@H]2OC[C@@H](O)[C@H](O[C@@H]3OC[C@@H](O)[C@H](O)[C@H]3O)[C@H]2O)[C@@H](O)[C@H]1O (some centres undefined)	Dose-dependent effect	Dose-dependent effect
C/C=C(\C)C(=O)O[C@H]1[C@H](O)[C@]2(COC(C)=O)[C@H](O)C[C@]3(C)C(=CC[C@@H]4[C@@]5(C)CC[C@H](O[C@@H]6O[C@H](C(=O)O)[C@@H](O[C@@H]7O[C@H](CO)[C@@H](O)[C@H](O)[C@H]7O)[C@H](O)[C@H]6O[C@@H]6O[C@H](CO)[C@@H](O)[C@H](O)[C@H]6O)[C@](C)(CO)[C@@H]5CC[C@]43C)[C@@H]2CC1(C)C [ISOESCIN IA]	Dose-dependent effect	Dose-dependent effect
CC(C)=CCC[C@@H](C)[C@H]1CC[C@]2(C)[C@@H]1[C@H](O)C[C@@H]1[C@@]3(C)CC[C@H](O)C(C)(C)[C@@H]3[C@@H](O)C[C@]12C	Dose-dependent effect	Dose-dependent effect
C/C=C(/C)C(=O)O[C@H]1[C@H](O)[C@]2(COC(C)=O)[C@H](O)C[C@]3(C)C(=CC[C@@H]4[C@@]5(C)CC[C@H](O[C@@H]6O[C@H](C(=O)O)[C@@H](O[C@@H]7O[C@H](CO)[C@@H](O)[C@H](O)[C@H]7O)[C@H](O)[C@H]6O[C@@H]6O[C@H](CO)[C@@H](O)[C@H](O)[C@H]6O)[C@](C)(CO)[C@@H]5CC[C@]43C)[C@@H]2CC1(C)C [ISOESCIN IB]	Dose-dependent effect	Dose-dependent effect
C=C[C@@](C)(O)CC/C=C(\C)C(=O)O[C@H]1[C@H](OC[C@H]2O[C@@H](OC(=O)[C@]34CCC(C)(C)C[C@@H]3C3=CC[C@@H]5[C@@]6(C)CC[C@H](O[C@@H]7O[C@H](CO[C@@H]8OC[C@H](O)[C@H](O)[C@H]8O[C@@H]8OC[C@@H](O)[C@H](O)[C@H]8O)[C@@H](O)[C@H](O)[C@H]7O)C(C)(C)[C@@H]6CC[C@@]5(C)[C@]3(C)C[C@H]4O)[C@H](O[C@@H]3O[C@@H](C)[C@H](O[C@@H]4OC[C@@H](O)[C@H](O[C@@H]5OC[C@@H](O)[C@H](O)[C@H]5O)[C@H]4O)[C@@H](O)[C@H]3O)[C@@H](O)[C@@H]2O)O[C@@H](C)[C@H](O)[C@H]1OC(=O)/C(=C/CC[C@](C)(O)C=C)CO [GLEDITSIA SAPONIN C]	Dose-dependent effect	Dose-dependent effect
O=C(CCc1ccc(O)c(O)c1)OCCc1ccc(O)c(O)c1	Dose-dependent effect	Dose-dependent effect
Cn1nnc2c(C(N)=O)ncn2c1=O [TEMOZOLOMIDE]	Dose-dependent effect	Dose-dependent effect
C/C=C(\C)C(=O)O[C@H]1[C@H](O)[C@]2(COC(C)=O)[C@H](O)C[C@]3(C)C(=CC[C@@H]4[C@@]5(C)CC[C@H](O[C@@H]6O[C@H](C(=O)OC)[C@@H](O[C@@H]7O[C@H](CO)[C@@H](O)[C@H](O)[C@H]7O)[C@H](O)[C@H]6O[C@@H]6O[C@H](CO)[C@@H](O)[C@H](O)[C@H]6O)[C@](C)(CO)[C@@H]5CC[C@]43C)[C@@H]2CC1(C)C	Dose-dependent effect	Dose-dependent effect
COc1cc(CCC(=O)OCCc2ccc(O)c(O)c2)ccc1O	Dose-dependent effect	Dose-dependent effect
CC(=O)Oc1cc(CCOC(=O)CCc2ccc(O)c(OC(C)=O)c2)ccc1O	Dose-dependent effect	Dose-dependent effect
